Columns and labels:
[1] = system: uptake of 3H-noradrenaline; assay: Inhibition of uptake of 3H-noradrenaline in mouse midbrain slices, in vitro; assay type: biochemical; settings: 5-HT versus noradrenaline uptake
Description: (§1) It is not possible by experimental means to induce depressions in laboratory animals. In order to evaluate a possible anti-depressive effect of new substances biochemical-pharmacological test methods must be resorted to. One such method, which seems to give a good indication of the potential anti-depressive effects of the test substances, is described in Europ.
(§2) The test substances were administered intraperitoneally half an hour before the animals were killed. […] The incubation time was 5 minutes with 5 minutes of preincubation before the labelled amines were added. The slices were dissolved in Soluene® and the amounts of radio-active amines taken up were determined by liquid scintillation. […] Active uptake is defined as that part of the radioactive uptake which is inhibited by a high concentration of cocaine.
(§3) In the in vitro method, slices of mouse midbrain were preincubated for 5 minutes with a solution of the compound to be tested and then incubated as described above.

[2] = system: uptake of 14C-5-hydroxytryptamine; assay: Inhibition of uptake of 14C-5-HT in mouse midbrain slices, in vitro; assay type: biochemical; settings: tested as the hydrochloride
Description: as §1, §2, §3

[3] = system: uptake of 14C-5-hydroxytryptamine; assay: Inhibition of uptake of 14C-5-HT in mouse midbrain slices after in vivo (i.p.) administration
Description: as §1, §2

| SMILES | selectivity of uptake inhibition [1] | inhibition of the uptake of 5-HT in vitro, compared with prior art compounds [2] | inhibition of the uptake of 5-HT in vivo, compared with prior art compounds [3] |
| --- | --- | --- | --- |
| CNC/C=C(\c1ccc(Br)cc1)c1cccnc1 [E-form of the compound of the invention, 3-(4-bromophenyl)-N-methyl-3-(3-pyridyl)-allylamine] | primarily inhibits the uptake of noradrenaline |  |  |
| CNC/C=C(/c1ccc(Br)cc1)c1cccnc1 [Z-form of the compound of the invention, 3-(4-bromophenyl)-N-methyl-3-(3-pyridyl)-allylamine] |  | more potent inhibitor of the uptake of 5-HT in vitro than any of the prior art compounds | stronger inhibition of the uptake of 5-HT in vivo than do any of the prior art compounds tested |
